# Organism: Homo sapiens
# Assay: Inhibition of carbonic anhydrase (unknown origin) relative to sulfanilamide
smiles,measurement,value
Cc1ccc(S(N)(=O)=O)cc1,fold change (FC),8.5
